Measured values published in patent US4609725A, “Cardiac atrial peptides” (Merck & Co., Inc., priority 1984, dated 1986).

What was measured:
[1] = tested on: serotonin contracted rabbit aortae; assay type: cell-based
Excerpt: (§1) Under the conditions described above, conversion of non-iodinated ANF peptide fragment to the iodinated peptide was approximately 48%, based on the absorbance of the respective HPLC fractions and by amino acid analysis.

[2] = tested on: serotonin contracted rat aortae; assay type: cell-based
Excerpt: as §1

CC[C@H](C)[C@@H]1NC(=O)[C@H](CCCNC(=N)N)NC(=O)[C@H](CC(=O)O)NC(=O)[C@H]([C@@H](C)CC)NC(=O)[C@H](CCCNC(=N)N)NC(=O)CNC(=O)CNC(=O)[C@H](Cc2ccccc2)NC(=O)[C@@H](NC(=O)[C@H](CO)NC(=O)[C@H](CO)NC(=O)[C@H](CCCNC(=N)N)NC(=O)[C@@H](N)CCCNC(=N)N)CSSC[C@@H](C(=O)N[C@@H](CC(N)=O)C(=O)N[C@@H](CO)C(=O)N[C@@H](Cc2ccccc2)C(=O)N[C@@H](CCCNC(=N)N)C(=O)N[C@@H](Cc2ccc(O)cc2)C(=O)O)NC(=O)CNC(=O)[C@H](CC(C)C)NC(=O)CNC(=O)[C@H](CO)NC(=O)[C@H](CCC(N)=O)NC(=O)[C@H](C)NC(=O)CNC1=O [non-iodinated ANF peptide fragment, reference compound]
IC50 [1]: 0.55 nM
IC50 [2]: 0.85 nM
